Test system: PC-3 cells
Conditions: PC-3, 1.1 µM (IC50), 3 days

COc1cccc2c1C(=O)c1c(O)c3c(c(O)c1C2=O)C[C@@](O)(C(=O)CO)C[C@@H]3O[C@H]1C[C@H](N)[C@H](O)[C@H](C)O1 [DOX, Doxorubicin]
Tail Moment: 24.57

From PMC10970924, “Anticancer Potential of Pyridoxine-Based Doxorubicin Derivatives: An In Vitro Study” (Life, 2024)
